In PubChem BioAssay AID588493 (Sanford-Burnham Center for Chemical Genomics, 2011):
This is a selection; strong and weak results do not stand in their true shares. Active and inactive are the calls of the source.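 The calls were made as follows: active = inhibition at 20 µM, scaled to each plate's controls, above about 33% (limit read from the data); inactive = the rest.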

By UniProt entry, the sequences of proteins in these tests, tags left out.
UniProt O00487, whole entry, looked up: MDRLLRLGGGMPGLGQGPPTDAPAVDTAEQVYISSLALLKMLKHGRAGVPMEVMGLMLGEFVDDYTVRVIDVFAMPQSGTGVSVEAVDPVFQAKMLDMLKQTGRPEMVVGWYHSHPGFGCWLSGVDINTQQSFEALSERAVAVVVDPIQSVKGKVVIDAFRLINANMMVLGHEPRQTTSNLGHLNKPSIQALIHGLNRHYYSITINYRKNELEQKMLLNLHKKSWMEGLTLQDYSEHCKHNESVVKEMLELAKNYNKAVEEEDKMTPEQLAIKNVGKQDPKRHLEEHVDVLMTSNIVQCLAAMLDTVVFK

Molecular target: 26S proteasome non-ATPase regulatory subunit 14 (Homo sapiens) (UniProt O00487)
Assay: Rpn11 (PSMD14) deubiquitinase inhibitors, primary screen, biochemical, fluorescence polarization, uHTS (AID 588493)
Settings: human 26S proteasome, Ub4-pepOG fluorescence polarization; at 20 µM; active compounds read high; 20S core pre-blocked with epoxomicin

| Structure (SMILES) | inhibition |
| --- | --- |
| Cc1cc(=O)[nH]c(N[N+](=O)[O-])n1 | inactive: -2.3% |
| Cc1c2c(nc3ccccc13)SC(C(Cl)Cl)C2 (configuration not stated) | inactive: -3.2% |
| COc1ccc(N/C(=N/P(=O)(N2CCOCC2)N2CCOCC2)N2CCOCC2)cc1 | inactive: -3.7% |
| O=[N+]([O-])c1cc(Oc2ccc([N+](=O)[O-])cc2C(F)(F)F)cc([N+](=O)[O-])c1 | inactive: 2.7% |
| O=C(COc1ccccc1)OC1CN2CCC1CC2 (configuration not stated) | inactive: -8.9% |
| O=C(Nc1ccncc1[N+](=O)[O-])c1ccc([N+](=O)[O-])cc1[N+](=O)[O-] | inactive: 3% |
| O=C(O)C(=O)c1ccc(N(CCCl)CCCl)cc1 | inactive: -0.2% |
| COP1(=S)c2c(C)nn(CCC#N)c2N=C(c2ccc(F)cc2)N1C (configuration not stated) | inactive: -1.8% |
| COC(=O)C1(C)COP(=O)(N2CCCC2)OC1 (configuration not stated) | inactive: -1.1% |
| CCC(C)N(CC(C)C)C(=S)SC(NC(C)=O)C(Cl)(Cl)Cl (configuration not stated) | inactive: 1% |
| CCOC(=O)c1ccc(NC(=O)C(C)(CCl)SC)cc1 (configuration not stated) | inactive: -1.2% |
| O=C(OC1CN2CCC1CC2)c1cccc([N+](=O)[O-])c1 (configuration not stated) | inactive: -0.3% |
| CSc1ccc(Nc2c([N+](=O)[O-])cc([N+](=O)[O-])cc2[N+](=O)[O-])cc1 | inactive: -6.5% |
| CCCCOc1ccc(C(=O)NCC2(N3CCCCC3)CCCCC2)cc1OC | inactive: 12% |
| Cc1cc(SC(NC(=O)c2ccccc2)C(Cl)(Cl)Cl)nc(C(C)C)n1 (configuration not stated) | inactive: -1.1% |
| COP(=O)(OC)N1CC1c1ccccc1 (configuration not stated) | inactive: -3.1% |
| CC1CCNP(=O)(N(CCCl)CCCl)O1 (configuration not stated) | inactive: -2.3% |
| O=C(O)C(O)c1ccc(N(CCCl)CCCl)cc1 (configuration not stated) | inactive: -13.7% |
| CCOC(=O)Nc1ccc([As](=O)(O)O)c(O)c1 | inactive: -3.9% |
| O=[N+]([O-])c1ccc(Nc2ccc(Oc3ccc([N+](=O)[O-])cc3[N+](=O)[O-])cc2)c([N+](=O)[O-])c1 | inactive: -6.1% |
| Cc1cc(SC(NC=O)C(Cl)(Cl)Cl)ncn1 (configuration not stated) | inactive: -5.6% |
| O=P(Nc1ccccn1)(c1cccc2ccccc12)c1cccc2ccccc12 | inactive: 10.6% |
| CCOC(=O)Nc1cccc([As](=O)(O)O)c1 | inactive: -0.6% |
| O=C(/C=C/c1ccccc1)OC1CN2CCC1CC2 (configuration not stated) | inactive: 1% |

| Structure (SMILES) | inhibition |
| --- | --- |
| CCCC1OP(=O)(Nc2ccccc2)OCC1CC (configuration not stated) | inactive: -2.4% |
| CN(C)C1(CNC(=O)c2ccc(S(C)(=O)=O)cc2)CCCCC1 | inactive: -3.4% |
| Cc1nn(-c2ccccc2)c2c1P(=O)(N1CCOCC1)N(C)C(c1ccccc1)=N2 (configuration not stated) | inactive: -2.9% |
| Cc1ccc(C(=O)OC2CN3CCC2CC3)cc1 (configuration not stated) | inactive: 0.5% |
| CC1CCC(C(C)C)C(OP(=O)(Nc2ccccn2)c2ccccc2)C1 (configuration not stated) | inactive: -1.1% |
| O=[As](O)(c1cccs1)c1cccs1 | inactive: -3.7% |
| Cc1ccc(OCC(=O)OC2CN3CCC2CC3)cc1 (configuration not stated) | inactive: -1.8% |
| NS(=O)(=O)c1cccc(NC(=O)COC(=O)C(O)(c2ccccc2)c2ccccc2)c1 | inactive: -2% |
| O=P1(Nc2ccc(Br)cn2)COc2ccccc2OC1 | inactive: -5.1% |
| Nc1cccc([As](=O)(O)c2ccccc2)c1 | inactive: 7.6% |
| O=P1(Nc2ncccn2)COc2ccccc2OC1 | inactive: -0.5% |
| Cc1ccc(S(=O)(=O)N(CCCN)CCCc2c(C)nc(N)[nH]c2=O)cc1 | inactive: -8.9% |
| Clc1n[nH]nc1-c1nn[nH][15n]1 | inactive: -0.8% |
| O=P1(N(CCCl)CCCl)NCCC(C(F)(F)F)O1 (configuration not stated) | inactive: -3.2% |
| CC(C)(C)C(=O)NC(Sc1ncccn1)C(Cl)(Cl)Cl (configuration not stated) | inactive: 4.4% |
| CCOP(=O)(Nc1ccc(C)cn1)OCC | inactive: 0.3% |
| CN(CCCl)Cc1cc(Cl)c(NC2=NCCN2)c(Cl)c1 | inactive: -1.7% |
| CCC1=CC2Cc3nc4ccc(Cl)cc4c(N)c3C(C1)C2 (configuration not stated) | inactive: -26.9% |
| O=P1(Nc2ccccn2)COc2ccccc2OC1 | inactive: -8.4% |
| CCOP(=O)(NC(=NC(C)c1ccccc1)NC(C)c1ccccc1)OCC (configuration not stated) | inactive: -9.5% |
| CC1(CBr)Cn2c(nc3ccccc3c2=O)S1 (configuration not stated) | inactive: -9.9% |
| CN(C(=O)Cc1ccc(Cl)c(Cl)c1)[C@@H]1CCCC[C@H]1N1CCCC1 | inactive: -3.7% |
| CC(C)/C=N\N=C(\N)N[N+](=O)[O-] | inactive: 1.6% |
| COc1ccccc1CNC(=O)COC(=O)C(O)(c1ccccc1)c1ccccc1 | inactive: -3.7% |

| Structure (SMILES) | inhibition |
| --- | --- |
| Cc1cccc(OCC(=O)OC2CN3CCC2CC3)c1 (configuration not stated) | inactive: 2% |
| O=[As](O)(c1cccc(O)c1)c1cccc(O)c1 | inactive: -11.8% |
| O=[As](O)(O)c1cccnc1 | inactive: 2.8% |
| COc1cc(C(=O)NCC2(N3CCOCC3)CCCCC2)cc(Cl)c1OC(C)C | inactive: 2.9% |
| CS(=O)(=O)c1ccc(Cl)c(NC(=O)COC(=O)C(O)(c2ccccc2)c2ccccc2)c1 | inactive: 6.6% |
| O=C(OC1CN2CCC1CC2)c1ccc(Cl)cc1 (configuration not stated) | inactive: 5.2% |
| COc1cc(C2NCCC3(OCCO3)C2(C)C)cc(OC)c1OC (configuration not stated) | inactive: -1.6% |
| CCOP(=O)(Nc1cccc2ccccc12)OCC | inactive: -8.5% |
| CCCOP(=S)(Nc1nc(N)cc(=O)[nH]1)OCCC | inactive: 12.2% |
| Nc1cccc2c([As](=O)(O)O)cccc12 | inactive: 11.5% |
| Cc1ccc(NCCc2c([N+](=O)[O-])cc([N+](=O)[O-])cc2[N+](=O)[O-])cc1 | inactive: 4.2% |
| O=C(O)COc1ccc([As](=O)(O)O)cc1[N+](=O)[O-] | inactive: 5% |
| Nc1ccccc1[As](=O)(O)c1ccccc1 | inactive: -3.3% |
| CS(=O)(=O)c1cc([N+](=O)[O-])c2no[n+]([O-])c2c1 | inactive: -0.1% |
| CCOP1(=S)c2c(C)nn(CCC#N)c2N=C(c2ccccc2F)N1C (configuration not stated) | inactive: 9.1% |
| O=P(Nc1nccs1)(Oc1ccccc1)Oc1ccccc1 | inactive: -2.6% |
| O=P(Nc1nccs1)(c1ccccc1)c1nc2ccccc2s1 (configuration not stated) | inactive: -6.5% |
| O=[N+]([O-])c1ccc2c(c1)nnn2O | inactive: -0.1% |
| CN(C)C(=O)c1cc([N+](=O)[O-])cc2c1-c1c(cc([N+](=O)[O-])cc1[N+](=O)[O-])C2=O | inactive: -6.1% |
| CN(C(=O)Cc1ccc(Cl)c(Cl)c1)[C@H]1CC[C@@]2(CCCO2)C[C@@H]1N1CCCC1 | inactive: 0.8% |
| N#CCCN(C(=O)COC(=O)C(O)(c1ccccc1)c1ccccc1)c1ccc(F)cc1 | inactive: -9.9% |
| CN(C(=O)Cc1ccccc1)[C@@H]1CC[C@]2(CCCO2)C[C@H]1N1CCCC1 | inactive: 3.3% |
| CCOP1(=S)c2c(C)nn(CCC#N)c2N=C(c2ccc(F)cc2)N1C (configuration not stated) | inactive: -10.2% |
| NC(=O)Nc1ccc([As](=O)(O)O)cc1 | inactive: -6.5% |
